Experimental data from ChEMBL document CHEMBL3588744, “Structure-Based Optimization of Naphthyridones into Potent ATAD2 Bromodomain Inhibitors” (J Med Chem, 2015).

Chains of the proteins cited; added tags and fusions are not shown.
UniProt P25440, whole entry: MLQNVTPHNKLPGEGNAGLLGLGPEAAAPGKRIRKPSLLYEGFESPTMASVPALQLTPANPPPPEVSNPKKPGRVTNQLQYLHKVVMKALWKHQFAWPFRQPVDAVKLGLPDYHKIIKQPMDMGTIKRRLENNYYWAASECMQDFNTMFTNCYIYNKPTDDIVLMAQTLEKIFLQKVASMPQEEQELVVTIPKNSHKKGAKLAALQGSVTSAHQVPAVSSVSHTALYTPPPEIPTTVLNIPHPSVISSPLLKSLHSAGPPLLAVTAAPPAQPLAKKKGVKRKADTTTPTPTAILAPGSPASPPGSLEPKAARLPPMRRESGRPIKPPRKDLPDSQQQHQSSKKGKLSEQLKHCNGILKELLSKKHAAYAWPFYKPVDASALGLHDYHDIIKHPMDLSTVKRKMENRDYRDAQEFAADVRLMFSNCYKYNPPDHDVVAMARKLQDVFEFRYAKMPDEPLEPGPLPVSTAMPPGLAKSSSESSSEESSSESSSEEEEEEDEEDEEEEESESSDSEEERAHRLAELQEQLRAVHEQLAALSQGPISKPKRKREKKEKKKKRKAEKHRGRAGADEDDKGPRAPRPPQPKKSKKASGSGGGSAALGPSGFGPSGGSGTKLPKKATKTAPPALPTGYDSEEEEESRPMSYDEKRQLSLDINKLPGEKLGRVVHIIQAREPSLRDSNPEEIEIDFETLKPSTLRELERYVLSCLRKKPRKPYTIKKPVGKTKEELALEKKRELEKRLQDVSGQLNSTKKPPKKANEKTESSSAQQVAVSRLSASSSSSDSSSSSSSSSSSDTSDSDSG

Key:
[1] = target: Bromodomain testis-specific protein (Homo sapiens, UniProt Q58F21); test: Binding affinity to BRDt containing BD1 bromodomains (unknown origin) by TR-FRET assay
[2] = target: T1, Bromodomain-containing protein 2 (Homo sapiens, UniProt P25440); test: Binding affinity to BRD2 containing BD1 bromodomains (unknown origin) by TR-FRET assay
[3] = target: T2, ATPase family AAA domain-containing protein 2 (Homo sapiens, UniProt Q6PL18)
T2 sequence (Q6PL18 whole entry): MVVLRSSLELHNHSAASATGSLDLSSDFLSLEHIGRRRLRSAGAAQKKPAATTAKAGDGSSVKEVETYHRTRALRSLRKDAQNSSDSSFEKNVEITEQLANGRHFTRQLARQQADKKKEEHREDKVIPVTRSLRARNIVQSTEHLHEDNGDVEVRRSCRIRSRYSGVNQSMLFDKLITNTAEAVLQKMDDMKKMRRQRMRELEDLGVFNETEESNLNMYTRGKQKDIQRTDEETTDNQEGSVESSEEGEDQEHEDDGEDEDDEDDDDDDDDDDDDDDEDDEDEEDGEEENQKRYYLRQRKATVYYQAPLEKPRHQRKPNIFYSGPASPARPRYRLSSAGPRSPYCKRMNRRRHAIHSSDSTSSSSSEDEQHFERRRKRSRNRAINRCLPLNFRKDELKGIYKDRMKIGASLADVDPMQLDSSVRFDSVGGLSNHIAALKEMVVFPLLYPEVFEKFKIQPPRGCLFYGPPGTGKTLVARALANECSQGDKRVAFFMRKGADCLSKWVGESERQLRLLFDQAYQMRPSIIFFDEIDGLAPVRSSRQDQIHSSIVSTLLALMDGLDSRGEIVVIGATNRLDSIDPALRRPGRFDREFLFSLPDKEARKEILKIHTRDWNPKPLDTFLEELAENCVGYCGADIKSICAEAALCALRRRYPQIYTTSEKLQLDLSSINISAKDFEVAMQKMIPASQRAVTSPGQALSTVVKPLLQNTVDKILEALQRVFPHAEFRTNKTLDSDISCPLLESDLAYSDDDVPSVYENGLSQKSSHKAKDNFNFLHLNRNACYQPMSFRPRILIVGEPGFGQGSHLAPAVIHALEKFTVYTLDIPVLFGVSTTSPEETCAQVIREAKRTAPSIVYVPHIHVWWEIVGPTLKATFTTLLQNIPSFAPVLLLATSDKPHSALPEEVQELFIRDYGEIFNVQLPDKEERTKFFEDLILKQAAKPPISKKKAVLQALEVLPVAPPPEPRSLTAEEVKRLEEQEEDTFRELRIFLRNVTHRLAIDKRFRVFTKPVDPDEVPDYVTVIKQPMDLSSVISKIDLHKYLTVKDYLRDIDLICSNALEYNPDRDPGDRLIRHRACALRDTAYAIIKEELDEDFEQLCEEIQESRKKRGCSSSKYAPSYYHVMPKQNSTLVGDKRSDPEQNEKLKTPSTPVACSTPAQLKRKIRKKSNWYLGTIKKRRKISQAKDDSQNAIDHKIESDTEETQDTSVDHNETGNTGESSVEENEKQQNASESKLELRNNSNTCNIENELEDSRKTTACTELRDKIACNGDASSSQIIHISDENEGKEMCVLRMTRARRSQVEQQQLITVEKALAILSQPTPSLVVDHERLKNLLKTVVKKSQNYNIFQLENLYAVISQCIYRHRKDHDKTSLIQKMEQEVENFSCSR

[4] = target: T2, ATPase family AAA domain-containing protein 2; remark: listed apart in the source
[5] = target: T1, Bromodomain-containing protein 2; test: Binding affinity to BRD2 containing BD2 bromodomains (unknown origin) by TR-FRET assay
[6] = target: T2, ATPase family AAA domain-containing protein 2; remark: listed apart in the source
[7] = target: T2, ATPase family AAA domain-containing protein 2; remark: listed apart in the source
[8] = target: T3, Bromodomain-containing protein 4 (Homo sapiens, UniProt O60885, Y390A)
[9] = target: T3, Bromodomain-containing protein 4; remark: listed apart in the source
[10] = target: Bromodomain-containing protein 4 (Homo sapiens, UniProt O60885); test: Binding affinity to BRD4 in human HUT78 cells incubated for 45 mins by mass spectrometry based bromosphere chemoproteomic assay; assay type: cell-based
[11] = target: T2, ATPase family AAA domain-containing protein 2; remark: listed apart in the source
[12] = target: T2, ATPase family AAA domain-containing protein 2; test: biochemical
[13] = target: T2, ATPase family AAA domain-containing protein 2; remark: listed apart in the source

SMILES | IC50 [3] [nM] | IC50 [6] [nM] | Kd [7] | other results
Cc1cncc(-c2cnc(N[C@@H]3CCNC[C@H]3OCC3CCS(=O)(=O)CC3)c3[nH]c(=O)c(C)cc23)c1 | 31.6 | 126 | 90 nM and 79.4 nM | IC50 [1]: 31600 nM; IC50 [2]: 31600 nM; IC50 [4]: 126 nM; IC50 [5]: > 31600 nM
Cc1cc2c(-c3cncc(N)c3)cnc(N[C@@H]3CCNC[C@H]3OCC3CCCCC3)c2[nH]c1=O | 39.8 | 126 | 50 nM and 50.1 nM | IC50 [8]: 631 nM
Cc1cc2ccnc(N[C@@H]3CCNC[C@H]3OCC3CCS(=O)(=O)CC3)c2[nH]c1=O | 501 | 794 | 1100 nM and 1000 nM | 
Cc1cc2ccnc(N[C@H]3CCNC[C@@H]3OCC3CCS(=O)(=O)CC3)c2[nH]c1=O |  | 50100 |  | 
Cc1cncc(-c2ccc(N[C@@H]3CCNC[C@H]3OCC3CCS(=O)(=O)CC3)c3[nH]c(=O)c(C)cc23)c1 |  | 63.1 | 60 nM and 63.1 nM | pIC50 [9]: 5.4; Kd [10]: 1260 nM; pIC50 [11]: 7.4; Kd [12]: 7.94 nM
Cc1cncc(-c2cnc(N[C@@H]3CCN(C)C[C@H]3OCC3CCS(=O)(=O)CC3)c3[nH]c(=O)c(C)cc23)c1 | 100 | 316 | 200 nM | IC50 [4]: 251 nM; Kd [12]: 63.1 nM; Ki [13]: 20 nM
Cc1cc2ccnc(N[C@@H]3CCNC[C@H]3OCC3CCS(=O)(=O)CC3)c2[nH]c1=O (racemic) | 1000 | 2510 |  | 
Cc1cncc(-c2ccc(N[C@@H]3CCNC[C@H]3OCC3CCS(=O)(=O)CC3)c3[nH]c(=O)c(C)cc23)c1 (racemic) | 39.8 | 158 |  | IC50 [8]: 3980 nM

Where “and” joins values, the source holds several entries; their conditions need not be identical. Identical values can stand only once.
